Reference: BindingDB's records for 24657054

Tests used:
[1] = biological target: Nociceptin receptor (Homo sapiens, UniProt P41146); assay: Agonist activity at human nociceptin opioid receptor transfected in CHO cell membranes assessed as stimulation of [35S]GTPgammaS binding after 60 mins by scintillation counting analysis
[2] = biological target: Mu-type opioid receptor (Homo sapiens, UniProt P35372); assay: Displacement of [3H]DAMGO from human mu opioid receptor transfected in CHO cell membranes after 60 mins

**Q.** What does the source list for `O=C1Cc2ccccc2N1C1CCN([C@H]2CC[C@@H]3CCCc4cccc2c43)CC1`?
**A.** EC50 [1]: 85 nM; Ki [2]: 42 nM
